One test concerns the target recombinant murine sEH (Mus musculus, UniProt P34914). The test can be described thus: fluorescent assay with CMNPC substrate, recombinant mouse sEH. Format: biochemical. Particulars: read-out: IC50, CMNPC, Mouse.
The next test has as its target recombinant rat sEH (Rattus norvegicus, UniProt P80299). The test can be described thus: fluorescent assay with CMNPC substrate, recombinant rat sEH. It is filed as biochemical. To be noted: read-out: IC50, CMNPC, Rat.

The chains behind the UniProt entries cited, without tags or fusion partners. Where a name states a change or a piece, a line headed by the entry shows the natural chain unless it says otherwise.
UniProt P34914: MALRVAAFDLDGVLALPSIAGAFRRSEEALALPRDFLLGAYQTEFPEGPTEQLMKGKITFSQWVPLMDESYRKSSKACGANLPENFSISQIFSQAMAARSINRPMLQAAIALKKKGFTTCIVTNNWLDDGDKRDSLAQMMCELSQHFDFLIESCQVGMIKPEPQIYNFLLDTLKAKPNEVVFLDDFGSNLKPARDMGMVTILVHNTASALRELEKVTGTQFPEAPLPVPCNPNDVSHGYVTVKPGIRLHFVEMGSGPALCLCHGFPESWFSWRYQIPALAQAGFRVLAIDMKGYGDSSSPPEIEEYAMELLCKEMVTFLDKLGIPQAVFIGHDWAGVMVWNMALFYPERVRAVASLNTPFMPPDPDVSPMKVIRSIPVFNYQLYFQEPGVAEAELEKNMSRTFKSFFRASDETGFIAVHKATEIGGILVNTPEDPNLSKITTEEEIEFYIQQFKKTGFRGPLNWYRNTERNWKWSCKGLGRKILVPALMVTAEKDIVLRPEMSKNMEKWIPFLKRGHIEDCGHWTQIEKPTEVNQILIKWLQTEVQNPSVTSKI
UniProt P80299: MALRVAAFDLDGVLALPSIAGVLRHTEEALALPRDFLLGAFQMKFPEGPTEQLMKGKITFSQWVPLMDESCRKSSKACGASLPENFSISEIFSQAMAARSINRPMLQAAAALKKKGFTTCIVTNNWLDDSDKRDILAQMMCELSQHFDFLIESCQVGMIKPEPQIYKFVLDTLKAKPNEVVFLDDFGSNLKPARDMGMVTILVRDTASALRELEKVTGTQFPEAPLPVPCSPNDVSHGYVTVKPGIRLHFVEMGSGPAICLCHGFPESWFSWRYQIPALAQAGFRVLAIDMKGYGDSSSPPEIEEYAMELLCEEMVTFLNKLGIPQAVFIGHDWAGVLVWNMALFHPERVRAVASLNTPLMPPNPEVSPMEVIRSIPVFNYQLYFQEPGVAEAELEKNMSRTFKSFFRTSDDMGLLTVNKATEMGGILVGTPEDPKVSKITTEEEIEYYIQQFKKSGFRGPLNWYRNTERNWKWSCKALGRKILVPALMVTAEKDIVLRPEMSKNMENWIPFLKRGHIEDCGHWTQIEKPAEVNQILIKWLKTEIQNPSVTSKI

In the case of `CC(=O)N1CCC(NC(=O)NC23CC4CC(CC(C4)C2)C3)CC1` [compound 14, N-(1-acetylpiperidin-4-yl)-N’-(adamant-1-yl) urea], the half-inhibitory concentration (IC50) on recombinant murine sEH was 9 nM; on recombinant rat sEH it was 6 nM.

The record behind these values is PMC3285443 (European Journal of Pharmaceutical Sciences, 2010).
